Laboratory results reported in patent US20060247311A1, “Methods for treating lower urinary tract disorders using alpha2delta subunit calcium channel modulators with smooth muscle modulators” (priority 2003, published 2006).

Conditions: female, rat, in vivo, iv, 3 mg/kg

CCN(CC)CC#CCOC(=O)C(O)(c1ccccc1)C1CCCCC1 (stereo not shown) [oxybutynin, 4-diethylaminio-2-butynyl phenylcyclohexyglycolate]
AUC0-∞: 20477 ng·min/mL
